The values that follow come from patent publication US10858359B2, “Heterocyclic ring derivatives useful as SHP2 inhibitors” (priority 2016, dated 2020).

pIC50: −log10 of the molar value.

The subject of this experiment is KYSE-520 cells. Put plainly: Cell proliferation assay (MTS/PMS). The experiment is classed as cell-based. To be noted: Homo sapiens, 192 h, 1500 cells/well, RPMI-1640 3% FBS, read at day 8. Here is the method: KYSE-520 (1500 cells/well) were plated onto 96-well plates in 100 μL medium (RPMI-1640 containing 3% FBS for KYSE-520 cells, Gibco). For drug treatment, compounds of the invention at various concentrations were added 24 hours after cell plating. At day 8, 50 μL MTS/PMS reagents (Promega/Sigma) were added, and the absorbance value was determined according to the supplier's instruction (Promega). The IC50 results of the compounds of the invention were shown by table 3.

`CC(=O)N1CC(F)(F)c2c(Sc3ncc(N4CCC5(CC4)COC[C@H]5N)nc3N)cccc21` [Example 7, (S)-1-(4-((3-amino-5-(4-amino-2-oxa-8-azaspiro[4.5]decan-8-yl)pyrazin-2-yl)thio)-3,3-difluoroindolin-1-yl)ethanone]: the pIC50 – broadly, the IC50 on a negative log10 scale, so that one unit is a factor of ten – is 5.66.
